Data reported in ChEMBL document CHEMBL4007392, “Modulating Mineralocorticoid Receptor with Non-steroidal Antagonists. New Opportunities for the Development of Potent and Selective Ligands without Off-Target Side Effects” (J Med Chem, 2017).

The chains behind the UniProt entries cited, without tags or fusion partners.
UniProt P08235, whole entry C808S: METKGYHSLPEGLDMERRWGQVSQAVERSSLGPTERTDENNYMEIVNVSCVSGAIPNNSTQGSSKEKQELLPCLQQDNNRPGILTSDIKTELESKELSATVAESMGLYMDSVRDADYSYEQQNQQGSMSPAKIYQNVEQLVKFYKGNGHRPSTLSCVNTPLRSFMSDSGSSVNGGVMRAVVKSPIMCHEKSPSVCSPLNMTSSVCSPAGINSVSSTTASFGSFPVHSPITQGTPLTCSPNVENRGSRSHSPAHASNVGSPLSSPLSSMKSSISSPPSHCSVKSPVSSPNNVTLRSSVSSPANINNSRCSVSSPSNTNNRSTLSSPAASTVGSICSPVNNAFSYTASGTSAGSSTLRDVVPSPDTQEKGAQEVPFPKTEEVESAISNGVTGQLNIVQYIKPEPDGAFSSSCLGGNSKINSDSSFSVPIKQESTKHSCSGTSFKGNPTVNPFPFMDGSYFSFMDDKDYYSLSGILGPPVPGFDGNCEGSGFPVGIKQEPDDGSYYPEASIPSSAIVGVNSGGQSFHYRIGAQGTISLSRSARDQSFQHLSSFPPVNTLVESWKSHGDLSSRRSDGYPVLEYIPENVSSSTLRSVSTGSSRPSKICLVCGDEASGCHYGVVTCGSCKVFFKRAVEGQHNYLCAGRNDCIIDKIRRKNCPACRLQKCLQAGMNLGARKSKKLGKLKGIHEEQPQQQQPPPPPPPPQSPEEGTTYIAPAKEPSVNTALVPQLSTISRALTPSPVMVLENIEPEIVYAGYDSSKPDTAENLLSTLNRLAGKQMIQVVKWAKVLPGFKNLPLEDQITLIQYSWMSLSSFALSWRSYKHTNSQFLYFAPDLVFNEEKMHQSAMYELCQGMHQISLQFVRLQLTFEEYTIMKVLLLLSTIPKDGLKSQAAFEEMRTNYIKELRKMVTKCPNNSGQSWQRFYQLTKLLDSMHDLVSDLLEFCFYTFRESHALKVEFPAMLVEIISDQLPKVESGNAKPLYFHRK

The compounds below were run against Mineralocorticoid receptor (Homo sapiens, UniProt P08235, C808S) (assay: Binding affinity to N-terminal 6His-GST-tagged human MR LBD (727 to 984 residues) harboring C808S mutation expressed in Escherichia coli BL21DE3/corticosterone complex by AlphaScreen assay).

IC50 [nM] | Compound
900 | CC(C)C[C@H](NC(=O)[C@H](CC(C)C)NC(=O)[C@H](CC(C)C)NC(=O)[C@H](CCCCN)NC(=O)[C@H](CCCCN)NC(=O)[C@H](CC(C)C)NC(=O)[C@H](CC(C)C)NC(=O)[C@H](CO)NC(=O)[C@@H]1CCCN1C(=O)[C@H](CCC(=O)O)NC(=O)[C@H](CCC(=O)O)NC(=O)[C@H](C)N)C(=O)N[C@@H](C)C(=O)N1CCC[C@H]1C(=O)N[C@@H](C)C(=O)O
2200 | CC[C@H](C)[C@H](NC(=O)[C@H](CCCCN)NC(=O)[C@H](Cc1cnc[nH]1)NC(=O)[C@H](CCCCN)NC(=O)[C@H](CCC(=O)O)NC(=O)[C@@H](N)CCCCN)C(=O)N[C@@H](CC(C)C)C(=O)N[C@@H](Cc1cnc[nH]1)C(=O)N[C@@H](CCCNC(=N)N)C(=O)N[C@@H](CC(C)C)C(=O)N[C@@H](CC(C)C)C(=O)N[C@@H](CCC(N)=O)C(=O)N[C@@H](CC(=O)O)C(=O)N[C@@H](CO)C(=O)N[C@@H](CO)C(=O)O
1400 | CC[C@H](C)[C@H](NC(=O)[C@H](CCCCN)NC(=O)[C@H](Cc1cnc[nH]1)NC(=O)[C@H](CCCNC(=N)N)NC(=O)[C@H](CCC(=O)O)NC(=O)[C@@H](N)[C@@H](C)O)C(=O)N[C@@H](CC(C)C)C(=O)N[C@@H](Cc1cnc[nH]1)C(=O)N[C@@H](CCCNC(=N)N)C(=O)N[C@@H](CC(C)C)C(=O)N[C@@H](CC(C)C)C(=O)N[C@@H](CCC(N)=O)C(=O)N[C@@H](CCC(=O)O)C(=O)N[C@@H](CO)C(=O)N[C@@H](CO)C(=O)O
1600 | CC(C)C[C@H](NC(=O)[C@H](CC(C)C)NC(=O)[C@H](Cc1ccc(O)cc1)NC(=O)[C@H](CCCNC(=N)N)NC(=O)[C@H](CC(C)C)NC(=O)[C@H](CC(C)C)NC(=O)[C@H](CCC(N)=O)NC(=O)[C@H](Cc1cnc[nH]1)NC(=O)[C@H](CC(=O)O)NC(=O)[C@H](CCCCN)NC(=O)[C@@H](N)CO)C(=O)N[C@@H](CC(=O)O)C(=O)N[C@@H](CCCCN)C(=O)N[C@@H](CC(=O)O)C(=O)N[C@@H](CCC(=O)O)C(=O)O
